Assays:
[1] = molecular target: T1, IL-1R1 on human cells (primary human chondrocytes; human whole blood) (human, UniProt P14778 18-569); experiment: cell-based or functional assay
T1 sequence (looked up): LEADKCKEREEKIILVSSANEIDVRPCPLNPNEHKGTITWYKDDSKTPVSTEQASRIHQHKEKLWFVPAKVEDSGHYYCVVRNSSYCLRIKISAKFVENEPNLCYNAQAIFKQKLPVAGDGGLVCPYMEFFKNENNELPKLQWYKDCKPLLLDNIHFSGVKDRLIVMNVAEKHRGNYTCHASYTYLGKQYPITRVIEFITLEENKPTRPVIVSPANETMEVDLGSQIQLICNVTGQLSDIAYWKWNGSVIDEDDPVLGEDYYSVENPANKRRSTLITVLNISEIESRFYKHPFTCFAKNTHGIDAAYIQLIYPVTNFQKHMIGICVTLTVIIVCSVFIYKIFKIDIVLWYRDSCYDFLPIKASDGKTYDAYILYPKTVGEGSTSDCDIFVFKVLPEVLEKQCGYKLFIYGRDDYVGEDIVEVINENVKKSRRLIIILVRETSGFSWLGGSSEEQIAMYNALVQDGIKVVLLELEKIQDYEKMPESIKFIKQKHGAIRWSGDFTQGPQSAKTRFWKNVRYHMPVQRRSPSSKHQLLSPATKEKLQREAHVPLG

[2] = molecular target: T1, IL-1R1 on human cells (primary human …); experiment: cell-based or functional assay; remark: listed apart in the source
[3] = molecular target: T2, biotinylated IL-1R1 (recombinant, on streptavidin-coated beads) (UniProt P14778 18-336, limits assumed, biotinylated); experiment: ECL bead competition assay: ruthenium-IL-1RAcP (5 nM) binding to biotinylated IL-1R1 with IL-1β (1 nM), complex formation
T2 construct: also called receptor
T2 sequence (looked up): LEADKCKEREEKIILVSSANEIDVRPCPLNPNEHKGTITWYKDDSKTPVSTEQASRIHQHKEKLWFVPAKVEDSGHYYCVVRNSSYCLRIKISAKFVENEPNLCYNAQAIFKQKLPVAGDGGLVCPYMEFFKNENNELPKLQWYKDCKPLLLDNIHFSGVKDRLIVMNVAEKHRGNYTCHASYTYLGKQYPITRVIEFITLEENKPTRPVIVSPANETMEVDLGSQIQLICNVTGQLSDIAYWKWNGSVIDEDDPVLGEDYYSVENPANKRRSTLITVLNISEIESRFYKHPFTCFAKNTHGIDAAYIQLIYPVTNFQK

[4] = molecular target: T1, IL-1R1 on human cells (primary human …); experiment: cell-based or functional assay; remark: listed apart in the source

B1: Interleukin-1 receptor antagonist (IL-1ra) (ligand, human, UniProt P18510 26-177, looked up)
chain: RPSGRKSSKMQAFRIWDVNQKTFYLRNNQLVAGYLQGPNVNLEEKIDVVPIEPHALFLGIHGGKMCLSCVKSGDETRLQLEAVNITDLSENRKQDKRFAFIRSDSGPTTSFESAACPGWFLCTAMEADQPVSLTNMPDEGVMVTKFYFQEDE
modifications: ruthenium tag in Example 3
notes: also called rIl-1ra; rIL-1ra
IC50, inhibition of IL-1β induced IL-6 production in primary human chondrocytes (Table 4B) [1]: 20 pM | IC50, inhibition of IL-1-induced IL-6 production in human whole blood, composite (pooled data) [2]: 264 pM | IC50, inhibition of IL-1-induced IL-6 production in human whole blood, donor 1047 [2]: 241 pM | IC50, inhibition of IL-1-induced IL-6 production in human whole blood, donor 1319 [2]: 381 pM | IC50 [3]: 0.555 nM | IC50, inhibition of IL-1β induced IL-6 production in primary human chondrocytes (Table 4A) [4]: 32 pM

Source: US20040097712A1 (Amgen, published 2004)
